By UniProt entry, the sequences of proteins in these tests, tags left out. Residues count along the entry.
UniProt P03372, 307-554: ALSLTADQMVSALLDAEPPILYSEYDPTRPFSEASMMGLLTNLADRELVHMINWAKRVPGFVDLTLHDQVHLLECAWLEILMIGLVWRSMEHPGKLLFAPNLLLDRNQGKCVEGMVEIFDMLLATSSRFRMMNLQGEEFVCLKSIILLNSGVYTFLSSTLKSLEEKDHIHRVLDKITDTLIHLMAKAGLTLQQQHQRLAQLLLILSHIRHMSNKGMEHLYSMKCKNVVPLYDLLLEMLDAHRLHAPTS

In the assay the target is recombinant human Estrogen Receptor alpha ligand binding domain (ER alpha-LBD (GST)) (Homo sapiens (Human), UniProt P03372). In words: ERα binding assay (LanthaScreen TR-FRET competition). The note with it: read-out: ER binding IC50 value; competitive displacement of Fluormone ES2 tracer, 4 hours room temperature. (In general: Time-resolved FRET reads energy transfer from a long-lived donor to a nearby acceptor.)
By IC50 is commonly meant the concentration at which inhibition is half-maximal. As to `C[C@@H]1Cc2c(ccc3[nH]ncc23)[C@@H](c2ccc(OCCN3CC(CF)C3)cc2)N1CC1(F)CC1` [Example 29, (6R,8R)-7-((1-fluorocyclopropyl)methyl)-6-(4-(2-(3-(fluoromethyl)azetidin-1-yl)ethoxy)phenyl)-8-methyl-6,7,8,9-tetrahydro-3H-pyrazolo[4,3-f]isoquinoline], the half-maximal inhibitory concentration (IC50) turned out to be 9.2 nM.
For the compound `C[C@@H]1Cc2c(ccc3[nH]ncc23)[C@@](C)(c2ccc(OCCN3CC(CF)C3)cc2)N1CC1(F)CC1` [Example 30, (6R,8R)-7-((1-fluorocyclopropyl)methyl)-6-(4-(2-(3-(fluoromethyl)azetidin-1-yl)ethoxy)phenyl)-6,8-dimethyl-6,7,8,9-tetrahydro-3H-pyrazolo[4,3-f]isoquinoline], the 50% inhibitory concentration (IC50) stood at 0.98 nM.
With `C[C@@H]1Cc2c(ccc3[nH]ncc23)[C@@H](c2ccc(OCCN3CC(CF)C3)cc2)N1CC1(F)COC1` [Example 31, (6R,8R)-6-(4-(2-(3-(fluoromethyl)azetidin-1-yl)ethoxy)phenyl)-7-((3-fluorooxetan-3-yl)methyl)-8-methyl-6,7,8,9-tetrahydro-3H-pyrazolo[4,3-f]isoquinoline], the IC50 stood at 1.4 nM.
As for `C[C@@H]1Cc2c(ccc3[nH]ncc23)[C@@](C)(c2ccc(OCCN3CC(CF)C3)cc2)N1CC1(F)COC1` [Example 32, (6R,8R)-6-(4-(2-(3-(fluoromethyl)azetidin-1-yl)ethoxy)phenyl)-7-((3-fluorooxetan-3-yl)methyl)-6,8-dimethyl-6,7,8,9-tetrahydro-3H-pyrazolo[4,3-f]isoquinoline], the figure is 0.67 nM; as for `CC(C)CN1[C@H](c2c(F)cc(OCCN3CC(CF)C3)cc2F)c2ccc3[nH]ncc3c2C[C@H]1C` [Example 33, (6S,8R)-6-(2,6-difluoro-4-(2-(3-(fluoromethyl)azetidin-1-yl)ethoxy)phenyl)-7-isobutyl-8-methyl-6,7,8,9-tetrahydro-3H-pyrazolo[4,3-f]isoquinoline], 0.9 nM.
Consider `CC(C)CN1C(c2c(F)cc(OCCN3CC(CF)C3)cc2F)c2ccc3[nH]ncc3c2CC1(C)C` (stereo not drawn) [Example 36, 6-(2,6-difluoro-4-(2-(3-(fluoromethyl)azetidin-1-yl)ethoxy)phenyl)-7-isobutyl-8,8-dimethyl-6,7,8,9-tetrahydro-3H-pyrazolo[4,3-f]isoquinoline], for which the IC50 amounted to 1.9 nM.
`CC(C)(F)CN1C(c2c(F)cc(OCCN3CC(CF)C3)cc2F)c2ccc3[nH]ncc3c2CC1(C)C` (stereo not drawn) [Example 37, 6-(2,6-difluoro-4-(2-(3-(fluoromethyl)azetidin-1-yl)ethoxy)phenyl)-7-(2-fluoro-2-methylpropyl)-8,8-dimethyl-6,7,8,9-tetrahydro-3H-pyrazolo[4,3-f]isoquinoline]: the IC50 amounted to 1 nM.
As for `C[C@@H]1Cc2c(ccc3[nH]ncc23)[C@@H](c2c(F)cc(OCCN3CC(C(F)F)C3)cc2F)N1CC(C)(C)F` [Example 38, (6S,8R)-6-(4-(2-(3-(difluoromethyl)azetidin-1-yl)ethoxy)-2,6-difluorophenyl)-7-(2-fluoro-2-methylpropyl)-8-methyl-6,7,8,9-tetrahydro-3H-pyrazolo[4,3-f]isoquinoline], the figure is 0.58 nM; as for `C[C@@H]1Cc2c(ccc3[nH]ncc23)[C@@H](c2ccc(OCCN3CC(CF)C3)cc2C#N)N1CC1(F)CC1` [Example 39, 2-((6S,8R)-7-((1-fluorocyclopropyl)methyl)-8-methyl-6,7,8,9-tetrahydro-3H-pyrazolo[4,3-f]isoquinolin-6-yl)-5-(2-(3-(fluoromethyl)azetidin-1-yl)ethoxy)benzonitrile], 2.8 nM; as for `CC(C)CN1[C@H](c2ccc(OCCN3CC(CF)C3)cn2)c2ccc3[nH]ncc3c2C[C@H]1C` [Example 40, (6S,8R)-6-(5-(2-(3-(fluoromethyl)azetidin-1-yl)ethoxy)pyridin-2-yl)-7-isobutyl-8-methyl-6,7,8,9-tetrahydro-3H-pyrazolo[4,3-f]isoquinoline], 9.4 nM.
With `C[C@@H]1Cc2c(ccc3[nH]ncc23)[C@@H](c2ccc(OCCN3CC(CF)C3)cn2)N1CC(C)(F)F` [Example 41, (6S,8R)-7-(2,2-difluoropropyl)-6-(5-(2-(3-(fluoromethyl)azetidin-1-yl)ethoxy)pyridin-2-yl)-8-methyl-6,7,8,9-tetrahydro-3H-pyrazolo[4,3-f]isoquinoline], the IC50 worked out at 1.8 nM.
With `COc1cc(OCCN2CC(CF)C2)ncc1[C@@H]1c2ccc3[nH]ncc3c2C[C@@H](C)N1CC1(F)CC1` [Example 42, (6S,8R)-7-((1-fluorocyclopropyl)methyl)-6-(6-(2-(3-(fluoromethyl)azetidin-1-yl)ethoxy)-4-methoxypyridin-3-yl)-8-methyl-6,7,8,9-tetrahydro-3H-pyrazolo[4,3-f]isoquinoline], the IC50 is 6.6 nM.
As for `C[C@@H]1Cc2c(ccc3[nH]nc(F)c23)[C@@H](c2c(F)cc(OCCN3CC(CF)C3)cc2F)N1CC1(F)COC1` [Example 43, (6S,8R)-6-(2,6-difluoro-4-(2-(3-(fluoromethyl)azetidin-1-yl)ethoxy)phenyl)-1-fluoro-7-((3-fluorooxetan-3-yl)methyl)-8-methyl-6,7,8,9-tetrahydro-3H-pyrazolo[4,3-f]isoquinoline], the figure is 2.2 nM; as for `CC(C)CN1[C@H](c2c(F)cc(OCCN3CC(CF)C3)cc2F)c2ccc3[nH]nc(F)c3c2C[C@H]1C` [Example 44, (6S,8R)-6-(2,6-difluoro-4-(2-(3-(fluoromethyl)azetidin-1-yl)ethoxy)phenyl)-1-fluoro-7-isobutyl-8-methyl-6,7,8,9-tetrahydro-3H-pyrazolo[4,3-f]isoquinoline], 2.5 nM.
With `CC1(C)Cc2c(ccc3[nH]ncc23)C(c2ccc(OCCN3CC(CF)C3)cn2)N1CC(F)F` (stereo not drawn) [Example 45, 7-(2,2-difluoroethyl)-6-(5-(2-(3-(fluoromethyl)azetidin-1-yl)ethoxy)pyridin-2-yl)-8,8-dimethyl-6,7,8,9-tetrahydro-3H-pyrazolo[4,3-f]isoquinoline], the IC50 worked out at 7.1 nM.
Consider `COc1nc(OCCN2CC(CF)C2)ccc1[C@@H]1c2ccc3[nH]ncc3c2C[C@@H](C)N1CC1(F)CC1` [Example 46, (6S,8R)-7-((1-fluorocyclopropyl)methyl)-6-(6-(2-(3-(fluoromethyl)azetidin-1-yl)ethoxy)-2-methoxypyridin-3-yl)-8-methyl-6,7,8,9-tetrahydro-3H-pyrazolo[4,3-f]isoquinoline], for which the IC50 came to 4.9 nM.
With `C[C@@H]1Cc2c(ccc3[nH]ncc23)[C@@H](c2c(F)cc(NCCN3CC(CF)C3)cc2F)N1CC(C)(C)F` [Example 47, 3,5-difluoro-4-((6S,8R)-7-(2-fluoro-2-methylpropyl)-8-methyl-6,7,8,9-tetrahydro-3H-pyrazolo[4,3-f]isoquinolin-6-yl)-N-(2-(3-(fluoromethyl)azetidin-1-yl)ethyl)aniline] the figure was 1.1 nM; with `C[C@@H]1Cc2c(ccc3[nH]ncc23)[C@@H](c2ncc(OCCN3CC(CF)C3)cc2F)N1CC(F)F` [Example 48, (6S,8R)-7-(2,2-difluoroethyl)-6-(3-fluoro-5-(2-(3-(fluoromethyl)azetidin-1-yl)ethoxy)pyridin-2-yl)-8-methyl-6,7,8,9-tetrahydro-3H-pyrazolo[4,3-f]isoquinoline], 4.1 nM; with `C[C@@H]1Cc2c(ccc3[nH]ncc23)[C@@H](c2ccc(OCCN3CC(CF)C3)cn2)N1CC(F)(F)F` [Example 49, (6S,8R)-6-(5-(2-(3-(fluoromethyl)azetidin-1-yl)ethoxy)pyridin-2-yl)-8-methyl-7-(2,2,2-trifluoroethyl)-6,7,8,9-tetrahydro-3H-pyrazolo[4,3-f]isoquinoline], 2.2 nM.
With `C[C@@H]1Cc2c(ccc3[nH]ncc23)[C@@H](c2ncc(OCCN3CC(CF)C3)cc2F)N1CC(F)(F)F` [Example 50, (6S,8R)-6-(3-fluoro-5-(2-(3-(fluoromethyl)azetidin-1-yl)ethoxy)pyridin-2-yl)-8-methyl-7-(2,2,2-trifluoroethyl)-6,7,8,9-tetrahydro-3H-pyrazolo[4,3-f]isoquinoline] the figure was 2.1 nM; with `C[C@@H]1Cc2c(ccc3[nH]ncc23)[C@@H](c2ccc(OCCN3CC(CF)C3)cn2)N1CC(F)F` [Example 51, (6S,8R)-7-(2,2-difluoroethyl)-6-(5-(2-(3-(fluoromethyl)azetidin-1-yl)ethoxy)pyridin-2-yl)-8-methyl-6,7,8,9-tetrahydro-3H-pyrazolo[4,3-f]isoquinoline], 5.9 nM.

The values are drawn from US10125135B2, “Chemical compounds” (AstraZeneca AB, priority 2016, dated 2018).
